Consider 3 compounds from PubChem BioAssay AID504607 (Sanford-Burnham Center for Chemical Genomics, 2011).

This is a selection; strong and weak results do not stand in their true shares. Active and inactive are the calls of the source.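 Rule for the calls: active = mean inhibition at 8 µM reaching about 37%, which flags the compound as non-specific (limit read from the data); inactive = the rest.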

The nature of this test: luminescence decrease from intact luciferase reporter – cell-based, single concentration, SaOS-2, counter-screen for Mdm2/MdmX interaction inhibitor project, confirmation (AID 504607).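 Note: p53-null SaOS-2 cells with luciferase driven by a doxycycline-inducible promoter; compound on cells about two nights before reading with doxycycline added after day one.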 Conditions: SaOS-2 full-length luciferase counterscreen, at 8 µM, stronger effect = higher value.
Consider `CN(C)C(=O)c1cc([N+](=O)[O-])cc2c1-c1c(cc([N+](=O)[O-])cc1[N+](=O)[O-])C2=O`, for which the inhibition (usually the drop in the measured response relative to a control, in per cent) was inactive: 0.81%.

For `CCC1=CC2Cc3nc4ccc(Cl)cc4c(N)c3C(C1)C2` (stereo not drawn), the inhibition is active: 62.6%. With `C[N+]1=C2C=CC=CC=C2SC12C([N+](=O)[O-])=CC([N+](=O)[O-])=C[C-]2[N+](=O)[O-]` (stereo not drawn) the figure was active: 41.3%.
